Results on one substance are retold here after patent publication US6825209B2 (dated 2004).

By UniProt entry, the sequences of proteins in these tests, tags left out.
UniProt P20272, whole entry: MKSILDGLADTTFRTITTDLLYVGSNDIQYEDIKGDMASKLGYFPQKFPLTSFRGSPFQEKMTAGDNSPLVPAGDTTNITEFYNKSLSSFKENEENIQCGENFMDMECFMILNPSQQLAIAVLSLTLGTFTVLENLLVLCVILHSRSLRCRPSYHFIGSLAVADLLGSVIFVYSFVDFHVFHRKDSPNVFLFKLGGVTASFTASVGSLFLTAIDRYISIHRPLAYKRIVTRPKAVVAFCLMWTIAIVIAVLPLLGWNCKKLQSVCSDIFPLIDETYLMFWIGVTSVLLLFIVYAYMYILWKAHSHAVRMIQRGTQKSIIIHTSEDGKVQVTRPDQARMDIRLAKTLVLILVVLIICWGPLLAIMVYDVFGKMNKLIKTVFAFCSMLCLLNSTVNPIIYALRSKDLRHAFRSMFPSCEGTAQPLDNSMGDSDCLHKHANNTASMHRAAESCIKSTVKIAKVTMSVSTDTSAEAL

pEC50, pKi: −log10 of the molar value. Where two headings read alike, the source gives them in different places.

The target of test [1] is G-protein-linked cannabinoid receptors (Rattus norvegicus, UniProt P20272). Nature of the test: GTP-γ-[35S] binding in whole rat brain. The class given is biochemical. The settings on record: read-out: EC50, GTP-γ-[35S] in Whole Rat Brain; whole rat brain membranes; inverse agonist/antagonist activity.
In a further test the target is CB1 receptor (Rattus norvegicus, UniProt P20272). Nature of the test: Radioligand displacement in whole rat brain (CB1) membrane preparations.

With SR144528 [reference compound], the pEC50 in test [1] is 5.09. The negative logarithm of the Ki (pKi) at CB1 receptor (read-out: Ki, displacement of 3H-CP55940, whole rat brain membranes, radioligand 3H-CP55940, Tables 1 and 2) was 7.13; on CB1 receptor (read-out: Ki, displacement of 3H-CP55940, whole rat brain, 3H-CP55940, Table 4, parallel synthesis analogs, n = 1, concentration assumes 100% yield), 7.13; at CB1 receptor (read-out: Ki, displacement of 3H-SR141716A, whole rat brain membranes, radioligand 3H-SR141716A, Tables 1 and 2) it was 7.09; on CB1 receptor (read-out: Ki, displacement of 3H-SR141716A, whole rat brain, 3H-SR141716A, Table 4, parallel synthesis analogs, n = 1, concentration assumes 100% yield) it was 7.09.
